According to patent US20090202439A1, “Methods for treatment of angiogenesis” (The Johns Hopkins University, priority 2004, published 2009):

Experiments:
[1] = test system: PECAM-1; assay: PECAM-1 protein expression by Western immunoblot in HUVECs; assay type: cell-based, human; conditions: CC 5.0 μM; GÖ 6850 and 6976 50 nM; BPB 10 μM; MAFP 3.0 μM; compared with vehicle (DMSO)
[2] = test system: HUVECs; assay: In vitro angiogenesis/tube formation assay in HUVECs; assay type: cell-based, human; conditions: CC 5.0 μM; GÖ 6850 and 6976 50 nM; BPB 10 μM; MAFP 3.0 μM; compared with vehicle (DMSO)

chelerythrinbe chloride
VEGF/LacCer induced PECAM-1 expression [1]: abrogated | VEGF/LacCer induced tube formation [2]: abrogated
